# Test results reported in IntAct's records for PubMed 18376416.
# B1: ADP-ribosylation factor-like protein 3 (Mus musculus), Q9WUL7 (parent)
# chain: MGLLSILRKLKSAPDQEVRILLLGLDNAGKTTLLKQLASEDISHITPTQGFNIKSVQSQGFKLNVWDIGGQRKIRPYWRSYFENTDILIYVIDSADRKRFEETGQELTELLEEEKLSCVPVLIFANKQDLLTAAPASEIAEGLNLHTIRDRVWQIQSCSALTGEGVQDGMNWVCKNVNAKKK
# partner: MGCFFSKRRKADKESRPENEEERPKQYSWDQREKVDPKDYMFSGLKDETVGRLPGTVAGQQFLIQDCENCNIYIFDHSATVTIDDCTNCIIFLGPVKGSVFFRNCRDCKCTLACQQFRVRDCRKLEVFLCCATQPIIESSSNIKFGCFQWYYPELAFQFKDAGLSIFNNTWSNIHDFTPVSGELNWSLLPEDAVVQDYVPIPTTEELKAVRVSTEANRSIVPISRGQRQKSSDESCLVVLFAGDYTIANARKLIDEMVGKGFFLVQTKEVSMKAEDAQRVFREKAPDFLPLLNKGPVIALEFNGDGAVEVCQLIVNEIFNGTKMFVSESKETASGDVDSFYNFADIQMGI
# Variants of: B1
# Settings: with xrp2_human RP2, O75695
row,effect of a mutation on the interaction,Variant
1,decreasing interaction,MGLLSILRKLKSAPDQEVRILLLGLDNAGKTTLLKQLASEDISHITPTQGFNIKSVQSQGFKLNVWDIGGQAKIRPYWRSYFENTDILIYVIDSADRKRFEETGQELTELLEEEKLSCVPVLIFANKQDLLTAAPASEIAEGLNLHTIRDRVWQIQSCSALTGEGVQDGMNWVCKNVNAKKK [R72A]
2,decreasing interaction,MGLLSILRKLKSAPDQEVRILLLGLDNAGKTTLLKQLASEDISHITPTQGFNIKSVQSQGFKLNVWDIGGQRKIRPYWRSYFENTDILIYVIDSADRKRFEETGQELTELLEEEKLSCVPVLIFANKQDLLTAAPASEIAEGLNLHTIRDRVWQIQSCSALTGAGVQAGMNWVCKNVNAKKK [E164A;D168A]

# Variants of: B1
# Settings: with xrp2_human RP2, O75695
# Remark: another data set of the same source
row,effect of a mutation on the interaction,Variant
1,disrupting interaction,MGLLSILRKLKSAPDQEVRILLLGLDNAGKTTLLKQLASEDISHITPTQGFNIKSVQSQGFKLNVWDIGGLRKIRPYWRSYFENTDILIYVIDSADRKRFEETGQELTELLEEEKLSCVPVLIFANKQDLLTAAPASEIAEGLNLHTIRDRVWQIQSCSALTGEGVQDGMNWVCKNVNAKKK [Q71L]
